Results as given in patent US10053675B2, “Hydroxyphenylpyruvate dioxygenase polypeptides and methods of use” (SYNGENTA PARTICIPATIONS AG, priority 2009, dated 2018).

Protein sequences, listed by entry. Tags and fused reporters are not part of them. Lines headed by an entry give the natural chain unless they say otherwise; changes in a name come on top.
UniProt A0ACD5V6K6, entry or part of it DEL109-109: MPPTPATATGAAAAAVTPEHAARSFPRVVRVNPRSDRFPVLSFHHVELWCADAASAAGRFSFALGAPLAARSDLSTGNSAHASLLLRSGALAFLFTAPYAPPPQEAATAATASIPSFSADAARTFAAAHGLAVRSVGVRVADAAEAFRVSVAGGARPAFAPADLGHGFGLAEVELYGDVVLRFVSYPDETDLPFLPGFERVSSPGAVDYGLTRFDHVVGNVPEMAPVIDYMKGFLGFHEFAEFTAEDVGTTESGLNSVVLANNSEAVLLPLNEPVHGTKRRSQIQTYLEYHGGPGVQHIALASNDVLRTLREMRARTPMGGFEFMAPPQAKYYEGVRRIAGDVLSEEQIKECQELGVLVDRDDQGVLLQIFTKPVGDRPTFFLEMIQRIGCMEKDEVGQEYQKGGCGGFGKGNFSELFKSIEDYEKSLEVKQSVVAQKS

What was measured:
[1] = target: T1, Avena-derived HPPD SEQ ID NO: 1 (Avena sativa, UniProt A0ACD5V6K6, DEL109-109); experiment: biochemical; assay type: binding
Description: On rates (governed by an association rate constant, kon) for the formation of the enzyme:inhibitor complexes, EI and off rates (governed by a dissociation rate constant, koff) were determined by methods known in the art and essentially as described in Hawkes et al. (2001) Proc. Bright. Crop. Prot. Conf. Weeds, 2:563-568 and in PCT Publication No. WO 02/46387).
Off rates (k1 in the scheme below) were derived from exchange rate studies where either the test inhibitor, I, or its exchange partner, J were radiolabelled and the data fit according to the scheme below. As noted in Hawkes et al. (2001) Proc. Bright. Crop. Prot. Conf.
After 30 minutes the exchange reaction was initiated with addition of 100 μl 1 mM ‘cold’ structure A with thorough mixing, and, immediately, 150 μl were withdrawn and loaded onto a NAP5 column, the protein exchanged into 50 mM BisTrisPropane buffer at pH 7.0 containing 0.1M KCl by rapid (<2 min) chromatography down a NAP5 G25 Sephadex® column (GE Healthcare Ltd, Buckinghamshire UK) and the amount of ^14C bound to protein measured by Optiphase scintillant using a Tri-Carb® 2900TR scintillation counter (Perkin Elmer, Wellesley, Mass.). Further aliquots were removed and measured in the same way at various times over minutes or hours as required in order to determine the exchange kinetics. […]

[2] = target: T1, Avena-derived HPPD SEQ ID NO: 1; experiment: On rate (kon, k2) of enzyme:inhibitor complex formation; assay type: binding; settings: 25° C.; direct radiochemical method

Q: Which results are given for `CS(=O)(=O)c1ccc(C(=O)C2C(=O)CCCC2=O)c([N+](=O)[O-])c1` [Compound B, mesotrione]?
A: Off rate k1 at ice temperature, individual experiments ([1]; ice temperature): 1.2e-05 s⁻¹; koff ([1]; read-out: Off rate k1 at ice temperature, individual experiments, ice temperature): 1.5e-05 s⁻¹; On rate k2, individual experiments [2]: 62000 s⁻¹ M⁻¹
